Experimental data from PMC2690590, “Functional recombinant MHC class II molecules and high-throughput peptide-binding assays” (Immunome Research, 2009).

Protein sequences, listed by entry. Tags and fused reporters are not part of them. Chains listed by the source or under a name are the forms on record and can include a tag or linker.
UniProt P01920, with tags, fused parts or gaps with the stated changes: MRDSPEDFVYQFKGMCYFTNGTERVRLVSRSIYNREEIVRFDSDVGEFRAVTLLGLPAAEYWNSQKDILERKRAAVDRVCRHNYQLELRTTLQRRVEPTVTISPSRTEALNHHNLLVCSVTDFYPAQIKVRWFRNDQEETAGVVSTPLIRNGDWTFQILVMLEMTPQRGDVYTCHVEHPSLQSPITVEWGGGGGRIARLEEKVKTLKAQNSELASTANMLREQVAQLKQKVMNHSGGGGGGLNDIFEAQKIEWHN

molecular target: T1, DQA1*0501/DQB1*0201 (Homo sapiens, UniProt P01909+P01920, C70S); test: Direct LOCI peptide-MHC-II binding assay, DQA1*0501/DQB1*0201
T1 construct: HAT-DQA1*05011-181(C47S)LZFos; DQB1*0201LZ1-190JunBSP; made in house

Row | Compound | Kd [µM]
1 | CC(C)C[C@H](NC(=O)CNC(=O)[C@H](Cc1c[nH]c2ccccc12)NC(=O)CNC(=O)[C@@H](NC(=O)[C@@H]1CCCN1C(=O)[C@@H](NC(=O)[C@H](C)NC(=O)[C@H](CC(=O)O)NC(=O)[C@H](C)NC(=O)[C@H](Cc1ccccc1)NC(=O)[C@@H](NC(=O)[C@H](CCC(N)=O)NC(=O)[C@H](CS)NC(=O)[C@H](CC(C)C)NC(=O)[C@@H](N)Cc1ccc(O)cc1)C(C)C)[C@@H](C)O)[C@@H](C)O)C(=O)O | 1.34
2 | CC[C@H](C)[C@H](N)C(=O)N[C@H](C(=O)N[C@@H](Cc1ccccc1)C(=O)N[C@@H](CCSC)C(=O)N[C@@H](Cc1c[nH]c2ccccc12)C(=O)N[C@@H](C)C(=O)N[C@H](C(=O)N[C@@H](Cc1c[nH]cn1)C(=O)N[C@@H](Cc1c[nH]cn1)C(=O)O)[C@@H](C)CC)C(C)C [Flu HA1194-202] | > 5
3 | CC[C@H](C)[C@H](NC(=O)[C@H](Cc1ccccc1)NC(=O)[C@@H]1CCCN1C(=O)[C@@H](N)Cc1ccc(O)cc1)C(=O)N[C@@H](CCC(=O)O)C(=O)N[C@@H](CCC(N)=O)C(=O)N[C@@H](CCC(=O)O)C(=O)NCC(=O)N1CCC[C@H]1C(=O)N[C@@H](CCC(=O)O)C(=O)N[C@@H](Cc1ccccc1)C(=O)N[C@@H](Cc1ccccc1)C(=O)N[C@@H](CC(=O)O)C(=O)N[C@@H](CCC(N)=O)C(=O)N[C@@H](CCC(=O)O)C(=O)O | 0.648
4 | CC[C@H](C)[C@H](NC(=O)CNC(=O)[C@@H](NC(=O)[C@H](Cc1ccccc1)NC(=O)[C@H](CCCCN)NC(=O)[C@H](CO)NC(=O)[C@H](CC(N)=O)NC(=O)[C@H](C)NC(=O)[C@H](CCCCN)NC(=O)[C@@H](NC(=O)[C@H](Cc1ccc(O)cc1)NC(=O)[C@@H](N)CCC(N)=O)[C@@H](C)CC)[C@@H](C)CC)C(=O)N[C@H](C(=O)N[C@@H](CCC(=O)O)C(=O)O)[C@@H](C)O [Clostridium tetanus] | > 5
5 | CC[C@H](C)[C@H](NC(=O)[C@@H](N)CCCCN)C(=O)N[C@@H](CC(C)C)C(=O)N[C@@H](CCC(=O)O)C(=O)N1CCC[C@H]1C(=O)N[C@@H](Cc1ccccc1)C(=O)N[C@@H](CCCNC(=N)N)C(=O)N[C@@H](CCCCN)C(=O)N[C@@H](Cc1ccc(O)cc1)C(=O)N[C@H](C(=O)N[C@@H](C)C(=O)N[C@@H](Cc1ccccc1)C(=O)N[C@H](C(=O)N[C@H](C(=O)N1CCC[C@H]1C(=O)O)[C@@H](C)CC)[C@@H](C)O)[C@@H](C)O | 1.54
6 | CC[C@H](C)[C@H](NC(=O)[C@@H](N)Cc1ccc(O)cc1)C(=O)N[C@@H](CC(C)C)C(=O)N[C@@H](Cc1ccccc1)C(=O)N[C@@H](CC(C)C)C(=O)N[C@H](C(=O)N[C@@H](CCCCN)C(=O)N[C@@H](CCSC)C(=O)N[C@@H](CC(N)=O)C(=O)N[C@@H](C)C(=O)N[C@@H](CC(C)C)C(=O)N[C@@H](CCCNC(=N)N)C(=O)N[C@@H](CCCNC(=N)N)C(=O)N[C@@H](CC(C)C)C(=O)N1CCC[C@H]1C(=O)N[C@H](C(=O)O)C(C)C)C(C)C | > 5
7 | CC[C@H](C)[C@H](NC(=O)[C@H](Cc1c[nH]cn1)NC(=O)[C@H](Cc1c[nH]cn1)NC(=O)[C@H](Cc1c[nH]cn1)NC(=O)[C@H](Cc1c[nH]cn1)NC(=O)[C@H](Cc1c[nH]cn1)NC(=O)[C@@H](N)Cc1c[nH]cn1)C(=O)N[C@@H](CCC(=O)O)C(=O)NCC(=O)N[C@@H](CCCNC(=N)N)C(=O)N[C@@H](Cc1ccccc1)C(=O)N[C@@H](C)C(=O)N[C@@H](C)C(=O)N[C@@H](CC(C)C)C(=O)N[C@@H](Cc1c[nH]c2ccccc12)C(=O)N[C@@H](Cc1ccccc1)C(=O)N[C@@H](CCCNC(=N)N)C(=O)N[C@@H](CC(N)=O)C(=O)N[C@@H](Cc1c[nH]cn1)C(=O)N[C@@H](Cc1ccccc1)C(=O)N[C@H](C(=O)N[C@@H](Cc1ccccc1)C(=O)NCC(=O)NCC(=O)NCC(=O)N[C@H](C(=O)N[C@@H](CCCCN)C(=O)O)[C@@H](C)O)C(C)C [6xH Lambda 2(315)] | > 5
8 | CC[C@H](C)[C@H](NC(=O)[C@H](C)NC(=O)[C@@H](NC(=O)[C@H](CCSC)NC(=O)[C@@H](N)CCCNC(=N)N)[C@@H](C)CC)C(=O)N[C@@H](CO)C(=O)N[C@@H](C)C(=O)N[C@@H](CCCCN)C(=O)N[C@H](C(=O)O)C(C)C [Pox.o42.con.im. A2] | > 5
9 | CC[C@H](C)[C@H](NC(=O)[C@H](CCC(=O)O)NC(=O)[C@H](C)NC(=O)[C@H](CCCCN)NC(=O)[C@H](CC(C)C)NC(=O)[C@@H]1CCCN1)C(=O)N[C@@H](C)C(=O)N[C@@H](CCC(N)=O)C(=O)N[C@@H](CCCNC(=N)N)C(=O)N[C@@H](CC(C)C)C(=O)N[C@@H](CCC(=O)O)C(=O)N[C@@H](CC(=O)O)C(=O)N[C@H](C(=O)O)C(C)C [Influenza] | > 5
10 | CC[C@H](C)[C@H](N)C(=O)N[C@@H](CCC(N)=O)C(=O)N[C@@H](CCSC)C(=O)N[C@@H](CC(C)C)C(=O)N[C@@H](CCCCN)C(=O)N[C@@H](CC(N)=O)C(=O)NCC(=O)N[C@@H](CCCCN)C(=O)N[C@@H](CCCCN)C(=O)N[C@H](C(=O)N1CCC[C@H]1C(=O)N[C@@H](CCCCN)C(=O)N[C@H](C(=O)N[C@@H](CCC(=O)O)C(=O)N[C@@H](CCSC)C(=O)N[C@@H](CO)C(=O)O)C(C)C)[C@@H](C)CC [Murine β2m] | > 5
11 | CC[C@H](C)[C@H](NC(=O)[C@H](CCC(=O)O)NC(=O)[C@H](Cc1ccc(O)cc1)NC(=O)[C@@H](NC(=O)[C@@H](NC(=O)CN)C(C)C)[C@@H](C)O)C(=O)N[C@@H](CC(=O)O)C(=O)N[C@@H](CC(C)C)C(=O)N[C@H](C(=O)N[C@@H](CC(N)=O)C(=O)N[C@@H](CCCCN)C(=O)N[C@@H](CC(N)=O)C(=O)O)[C@@H](C)O [Mycobact leprea] | > 5
12 | CC[C@H](C)[C@H](NC(=O)[C@H](CC(N)=O)NC(=O)[C@H](CCC(N)=O)NC(=O)[C@@H](NC(=O)[C@@H](NC(=O)[C@@H]1CCCN1)[C@@H](C)CC)C(C)C)C(=O)N[C@@H](CCC(N)=O)C(=O)NCC(=O)N[C@@H](CCC(N)=O)C(=O)N[C@@H](CCSC)C(=O)N[C@H](C(=O)N[C@@H](Cc1c[nH]cn1)C(=O)N[C@@H](CCC(N)=O)C(=O)O)C(C)C [HIV] | > 5
13 | CC[C@H](C)[C@H](NC(=O)[C@H](CCCCN)NC(=O)[C@H](CCCCN)NC(=O)[C@H](CC(C)C)NC(=O)[C@H](CC(C)C)NC(=O)[C@@H](NC(=O)[C@@H](N)Cc1ccc(O)cc1)[C@@H](C)CC)C(=O)N[C@@H](CC(C)C)C(=O)N[C@@H](CO)C(=O)N[C@@H](CO)C(=O)N[C@@H](CCCNC(=N)N)C(=O)N[C@@H](Cc1ccccc1)C(=O)N[C@@H](CC(N)=O)C(=O)N[C@@H](CCC(N)=O)C(=O)N[C@@H](CCSC)C(=O)O [Plasmodium Falciparum] | > 5
14 | CC[C@H](C)[C@H](NC(=O)[C@H](CC(C)C)NC(=O)[C@H](Cc1ccccc1)NC(=O)[C@H](C)NC(=O)[C@H](CC(C)C)NC(=O)[C@H](CC(=O)O)NC(=O)[C@@H](NC(=O)[C@H](CC(C)C)NC(=O)[C@@H](N)Cc1ccccc1)[C@@H](C)CC)C(=O)O [Pox.o42.con A2] | > 5
15 | CC[C@H](C)[C@H](NC(=O)[C@H](Cc1c[nH]cn1)NC(=O)[C@H](Cc1c[nH]cn1)NC(=O)[C@H](Cc1c[nH]cn1)NC(=O)[C@H](Cc1c[nH]cn1)NC(=O)[C@H](Cc1c[nH]cn1)NC(=O)[C@H](Cc1c[nH]cn1)NC(=O)[C@@H](N)Cc1ccc(O)cc1)C(=O)N[C@@H](CCC(=O)O)C(=O)NCC(=O)N[C@@H](CCCNC(=N)N)C(=O)N[C@@H](CO)C(=O)N[C@@H](Cc1ccccc1)C(=O)N[C@@H](CCC(=O)O)C(=O)N[C@@H](CCCNC(=N)N)C(=O)N[C@@H](Cc1ccccc1)C(=O)N[C@@H](CCC(=O)O)C(=O)N[C@H](C(=O)N[C@@H](Cc1ccccc1)C(=O)N1CCC[C@H]1C(=O)N[C@@H](CCCCN)C(=O)N[C@@H](CCC(=O)O)C(=O)O)[C@@H](C)CC [6xH Influenza A (PR8) HA 109–119] | 3.91
16 | CC(C)C[C@H](NC(=O)[C@H](CCCCN)NC(=O)[C@H](CC(C)C)NC(=O)[C@@H](NC(=O)[C@H](CC(N)=O)NC(=O)[C@H](CCC(N)=O)NC(=O)[C@H](CCCCN)NC(=O)[C@@H](NC(=O)[C@H](Cc1ccc(O)cc1)NC(=O)[C@H](CCCCN)NC(=O)[C@@H](N)Cc1ccc(O)cc1)C(C)C)[C@@H](C)O)C(=O)N[C@@H](C)C(=O)N[C@H](C(=O)O)[C@@H](C)O [HA306-318] | > 5
